The test addresses c-Met (Homo sapiens, UniProt P08581). The test is described as follows: c-Met inhibitory assay using AlphaScreen (Method A). As to conditions: read-out: c-Met IC50, ATP 20 μM.

Protein sequences, listed by entry. Tags and fused reporters are not part of them. Residues count along the entry.
UniProt P08581, 956-1390 limits assumed: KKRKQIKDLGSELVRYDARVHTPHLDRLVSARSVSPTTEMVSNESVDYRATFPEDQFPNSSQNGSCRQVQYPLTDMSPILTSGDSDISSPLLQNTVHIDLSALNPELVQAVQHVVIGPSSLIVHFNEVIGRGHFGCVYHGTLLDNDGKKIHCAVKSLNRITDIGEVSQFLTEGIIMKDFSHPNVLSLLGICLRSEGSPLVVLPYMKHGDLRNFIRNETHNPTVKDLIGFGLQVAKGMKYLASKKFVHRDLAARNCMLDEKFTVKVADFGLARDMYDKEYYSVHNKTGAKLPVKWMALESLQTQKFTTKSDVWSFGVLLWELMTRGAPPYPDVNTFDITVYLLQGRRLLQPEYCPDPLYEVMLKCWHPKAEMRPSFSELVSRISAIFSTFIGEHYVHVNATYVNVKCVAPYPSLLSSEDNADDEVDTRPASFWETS

For the molecule `COc1cc2nccc(Oc3ccc(NC(=S)NC(=O)Cc4ccccc4)cc3F)c2cc1C(=O)NCC(=O)N1CC[C@H](F)C1`, the IC50 (commonly the concentration that inhibits the measured activity by half) amounted to 107 nM.

These data come from patent US8304427B2, “Acylthiourea compound or salt thereof, and use thereof” (Taiho Pharmaceutical Co., Ltd., priority 2008, dated 2012).
